# In patent US10947220B2, “Anti-proprotein convertase subtilisin kexin type 9 (anti-PCSK9) compounds and methods of using the same in the treatment and/or prevention of cardiovascular diseases” (Shifa Biomedical Corporation, priority 2016, dated 2021):
# Sequences of proteins named here, by UniProt entry; tags and fusion partners are left off. Residues count along the entry.
# UniProt Q8NBP7, 153-692 limits assumed: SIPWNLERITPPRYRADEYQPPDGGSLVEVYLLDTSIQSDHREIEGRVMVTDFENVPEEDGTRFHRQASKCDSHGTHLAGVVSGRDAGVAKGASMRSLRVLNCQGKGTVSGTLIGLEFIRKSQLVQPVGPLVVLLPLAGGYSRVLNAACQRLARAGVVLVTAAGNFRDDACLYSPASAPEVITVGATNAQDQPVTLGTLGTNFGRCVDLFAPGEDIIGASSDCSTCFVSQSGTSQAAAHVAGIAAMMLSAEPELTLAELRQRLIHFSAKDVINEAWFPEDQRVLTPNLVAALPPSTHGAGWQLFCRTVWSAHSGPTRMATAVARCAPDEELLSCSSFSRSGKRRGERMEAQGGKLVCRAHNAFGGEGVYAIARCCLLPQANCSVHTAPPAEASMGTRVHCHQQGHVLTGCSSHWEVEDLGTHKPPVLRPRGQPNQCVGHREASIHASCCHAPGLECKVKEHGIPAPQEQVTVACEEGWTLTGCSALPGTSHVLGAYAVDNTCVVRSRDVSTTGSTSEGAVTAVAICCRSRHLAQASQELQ
# UniProt Q8NBP7, 31-152 partner limits assumed: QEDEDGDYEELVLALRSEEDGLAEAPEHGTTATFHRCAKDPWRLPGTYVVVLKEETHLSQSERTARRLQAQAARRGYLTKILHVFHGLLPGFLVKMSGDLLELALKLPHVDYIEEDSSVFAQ
# Where two headings read alike, the source gives them in different places.
# Experiments:
# [1] = biological target: PCSK9/LDLR interaction (His-tagged PCSK9, recombinant LDLR-AB domain) (Homo sapiens, UniProt Q8NBP7); test: PCSK9/LDLR binding in vitro ELISA (Circulex kit)
# Method: For screening inhibitors of the PCSK9/LDLR interaction, different concentrations (0.01 nM-100 μM) of selected compounds were incubated with His-tagged PCSK9 and then added to wells that were pre-coated with recombinant LDLR-AB domain. After incubation, the plate was washed and the amount of recombinant His-tagged PCSK9 was measured using the biotinylated anti-His-tag and horseradish peroxidase conjugated Streptavidin, and quantitated using a BioTek Synergy 2 plate reader. The effect of each compound on the PCSK9 binding to the recombinant LDLR-AB domain was calculated.
# Testing of compounds acquired from commercial sources was performed in our binding assay for their potential to inhibit the PCSK9/LDLR interaction. Initial screening was done using 100 μM of the compounds. Each compound was added to the binding reaction mixture in triplicate and assayed as described above. From the screening, a number of compounds were identified to have an effect on LDLR upregulation as compared to control (see Example 3 vide infra) while having no effect on PCSK9 processing and secretion (see Example 2 vide infra). Exemplary 2-carboxyanilide indoles and 2-carboxanilide pyrroles of the formula I that had >20% inhibition at 100 uM are shown in FIG. 1. Fifty five (55) structurally related 2-carboxyanlide benzofurans (compounds of the formulas II-IV) were also acquired. Compounds that inhibited the PCSK9/LDLR interaction were selected and analyzed using different compound concentrations ranging from 100 μM to 0.01 nM. […] (FIG. 4). Based on this preliminary SAR, an additional 34 compounds were designed and synthesized around SBC-115,337, and the compounds were tested in our binding assay as described in FIG. 4. From the screening, a number of benzofuran compounds were determined to have IC50's>10 uM but less </=50 uM (FIG. 2).
# HepG2 cells = test: Uptake of fluorescent Dil-LDL in HepG2 cells transfected with PCSK9; conditions: 1.2 uM compound
# Method: The SBC compounds were validated for their ability to increase uptake of Fluorescent Dil-LDL in HepG2 cells.
# The SBC compounds were validated for their ability to increase uptake of Fluorescent Dil-LDL in HepG2 cells as described in FIG. 9.
# In order to confirm that these PCSK9 antagonists upregulate functional LDLR, we tested the ability of these compounds to enhance the uptake of fluorescent Dil-LDL in HepG2 cells. Briefly, HepG2 cells transfected with PCSK9 (FIG. 4) were plated and allowed to grow overnight. Compounds were added to the cells followed by the addition of fluorescent Dil-LDL. Cells were washed extensively, and the fluorescent Dil-LDL taken up by the cells were measured using the Synergy 2 plate reader (FIG. 9 and FIG. 12). […] These compounds were selected for further analysis in the in vivo studies.
# [2] = Table 1 / FIG. 11, SAR around SBC-115,337
Compound,"IC50 [1, 2] [µM]","IC50 ([1]; read-out: IC50, inhibition of the PCSK9/LDLR interaction, compound concentrations 100 μM to 0.01 nM, FIG. 4) [µM]",fluorescent Dil-LDL uptake (HepG2 cells)
COc1cccc2c(C)c(C(=O)Nc3ccc(C(=O)Nc4ccc(C(C)(C)C)cc4)cc3)oc12,19.9,–,–
COc1cccc(NC(=O)c2ccc(NC(=O)c3oc4c(OC)cccc4c3C)cc2)c1,18.8,–,–
COc1ccc2oc(C(=O)Nc3ccc(C(=O)N(C)C)cc3)c(C)c2c1,–,7.3,increase in fluorescently labeled LDL uptake

# The next lines start with results.
"IC50 [1, 2] [µM]","IC50 ([1]; read-out: IC50, inhibition of the PCSK9/LDLR interaction, compound concentrations 100 μM to 0.01 nM, FIG. 4) [µM]",Compound,fluorescent Dil-LDL uptake (HepG2 cells)
5.9,–,COc1ccc2oc(C(=O)Nc3ccc4c(c3)C(=O)N(C)C4=O)cc2c1,–
14.5,–,COc1cccc2c(C)c(C(=O)Nc3ccc(C(=O)Nc4ccc(C5=NCCO5)cc4)cc3)oc12,–
5.5,–,CNC(=O)c1ccc(NC(=O)c2ccc(NC(=O)c3oc4c(OC)cccc4c3C)cc2)cc1,–
